# Target: T1, recombinant human IP6K2 (Homo sapiens, UniProt Q9UHH9)
# T1 construct: made in house; host or cells: Sf9 insect cells (baculovirus, pFASTBAC1)
# T1 sequence (Q9UHH9 1-426): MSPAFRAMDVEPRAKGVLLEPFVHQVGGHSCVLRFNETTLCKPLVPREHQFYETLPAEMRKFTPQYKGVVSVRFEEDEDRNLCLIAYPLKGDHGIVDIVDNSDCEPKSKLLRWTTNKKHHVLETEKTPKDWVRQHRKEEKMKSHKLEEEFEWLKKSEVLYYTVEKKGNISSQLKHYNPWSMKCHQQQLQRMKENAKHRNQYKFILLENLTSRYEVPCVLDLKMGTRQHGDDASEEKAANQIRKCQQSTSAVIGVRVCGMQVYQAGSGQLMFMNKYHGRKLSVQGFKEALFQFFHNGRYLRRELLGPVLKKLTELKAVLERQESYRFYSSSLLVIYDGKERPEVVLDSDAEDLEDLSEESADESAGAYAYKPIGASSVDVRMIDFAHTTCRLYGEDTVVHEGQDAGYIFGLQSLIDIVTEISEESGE
# Assay: ADP-Glo kinase assay, IP6K2
# Format: biochemical
smiles,measurement,value
"O=c1c(O)c(-c2ccc(O)c(O)c2)oc2cc(O)cc(O)c12 [Quercetin, 3,3′,4′,5,7-pentahydroxylflavone, reference compound]",IC50,3.31 ± 0.27 µM
